Consider 1 compound from ChEMBL document CHEMBL4190161 (Medchemcomm, 2016).

SMILES strings stand for the structures. Activity calls are given as the source filed them. The calls are words filed in the database; no cut-off is given here.

Experiment [1] in a line: Antioxidant activity assessed as trolox equivalent of hydroxyl radical scavenging activity up to 25 mg/ml measured after 60 mins by fenton reaction method. The format is functional.
Experiment [2] is described as follows: Antioxidant activity of the compound in phosphate buffer at pH 7.4 assessed as trolox equivalent of AAPH-induced peroxyl radical scavenging activity at 6 uM pretreated for 2 mins followed by AAPH addition measured at 2 mins interval for 108 minutes by ORAC-FL assay. The format is functional.
Experiment [3] in a line: Metal chelating activity assessed as compound-Fe2+ complex formation.
The nature of experiment [4]: Antioxidant activity assessed as DPPH radical scavenging activity incubated for 30 mins under dark condition by spectrophotometric method. The format is functional. On the technique in general: The DPPH test is a chemical assay of radical scavenging.

As a reminder, the IC50 is the concentration at which inhibition is half-maximal. Turning to `CC(C)C[C@H](NC(=O)[C@@H]1CCCN1)C(=O)NCC(=O)O`, the result in experiment [1] and in experiment [3] was inactive. Also, in experiment [2], the Activity (umolequiv/umol) was determined as 0.03. In addition, the IC50 in experiment [4] stood at 106 mM.
